Data taken from patent publication US10736974B2, “Scaffolds and multifunctional intermediates for imaging PSMA and cancer therapy” (THE JOHNS HOPKINS UNIVERSITY, priority 2014, dated 2020).

The chains behind the UniProt entries cited, without tags or fusion partners.
UniProt Q04609, whole entry: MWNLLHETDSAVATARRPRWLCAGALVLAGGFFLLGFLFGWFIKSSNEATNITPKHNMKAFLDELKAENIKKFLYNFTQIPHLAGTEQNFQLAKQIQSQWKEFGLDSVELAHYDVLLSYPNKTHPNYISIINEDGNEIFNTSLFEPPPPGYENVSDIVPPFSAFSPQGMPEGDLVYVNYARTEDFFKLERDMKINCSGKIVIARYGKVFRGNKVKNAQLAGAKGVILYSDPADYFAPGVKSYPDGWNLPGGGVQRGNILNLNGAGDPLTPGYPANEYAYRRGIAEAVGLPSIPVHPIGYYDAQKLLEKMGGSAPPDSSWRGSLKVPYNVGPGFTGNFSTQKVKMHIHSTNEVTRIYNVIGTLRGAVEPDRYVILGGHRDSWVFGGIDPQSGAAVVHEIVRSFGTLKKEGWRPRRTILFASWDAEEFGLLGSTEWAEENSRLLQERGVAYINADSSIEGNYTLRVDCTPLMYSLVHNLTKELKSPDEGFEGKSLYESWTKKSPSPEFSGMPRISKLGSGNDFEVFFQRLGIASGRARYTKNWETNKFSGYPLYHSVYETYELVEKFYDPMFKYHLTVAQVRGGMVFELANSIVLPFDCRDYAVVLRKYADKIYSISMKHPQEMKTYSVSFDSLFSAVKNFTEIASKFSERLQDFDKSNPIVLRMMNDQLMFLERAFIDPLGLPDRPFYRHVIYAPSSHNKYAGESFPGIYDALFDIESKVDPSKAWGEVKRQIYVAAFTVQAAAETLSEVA

Target: PSMA (Homo sapiens (Human), UniProt Q04609)
Assay: NAALADase assay: PSMA inhibitory activity, fluorescence-based Amplex Red Glutamic Acid assay, lysates of LNCaP cell extracts
Type: biochemical
Settings: Table 4
Method: Briefly, lysates of LNCaP cell extracts (25 μL) were incubated with the inhibitor (12.5 μL) in the presence of 4 μM N-acetylaspartylglutamate (NAAG) (12.5 μL) for 120 min. The amount of the glutamate released by NAAG hydrolysis was measured by incubating with a working solution (50 μL) of the Amplex Red Glutamic Acid Kit for 60 min. […] Assays were performed in triplicate. Data analysis was performed using GraphPad Prism version 4.00 for Windows (GraphPad Software, San Diego, Calif.).

Ki: 14 nM
SMILES: O=C(O)CC[C@H](NC(=O)N[C@@H](CSCc1ccc(F)cc1)C(=O)O)C(=O)O [DCFBC, N-[N-[(S)-1,3-Dicarboxypropyl]carbamoyl]-4-fluorobenzyl-1-cysteine, reference compound]
